Apparent affinities of Ab-91 variants for a coronavirus HR2 peptide

The target is the same throughout: PDVDLGDISGINAS, from the HR2 region of SARS-CoV-2 spike.

Each scFv is VL, the linker GGGGSGGGGSGGGGS, VH, as in the parent Ab-91, and differs from it in the CDRs of the heavy chain only.
VL: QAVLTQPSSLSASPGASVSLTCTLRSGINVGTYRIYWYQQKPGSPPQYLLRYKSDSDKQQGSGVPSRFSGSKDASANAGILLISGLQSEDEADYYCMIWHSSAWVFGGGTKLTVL
VH: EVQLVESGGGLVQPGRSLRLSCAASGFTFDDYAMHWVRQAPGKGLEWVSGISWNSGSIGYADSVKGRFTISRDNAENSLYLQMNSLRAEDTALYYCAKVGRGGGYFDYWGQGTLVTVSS

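The parent was found by panning a naive human phage display library on the peptide. In library AAYL51, one, two or three CDR residues were substituted; doubles and triples were drawn at random. AlphaSeq pools MATa yeast showing the antibodies with MATalpha yeast showing the peptide. The frequency of each diploid, read from paired DNA barcodes, reflects how well the two displayed proteins bind. The ratio of observed to expected reads was calibrated, replicate by replicate, on BCL2-family standards whose Kd was known from biolayer interferometry. The assay was run in three technical replicates.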

Variants are written as CDR1, CDR2 and CDR3 of the heavy chain (limits as in the source). Parent: GFTFDDYAMH, GISWNSGSIGYADSVK, VGRGGGYFDY. All variants listed here change G102 of the VH, counted from its first residue. The read-out is the apparent dissociation constant on a log10 scale (nM): the lower, the stronger. A mean of the replicates is given; it leaves out those without a signal. "nd" marks a missing value. The strain was present, yet no cells mated with the target were sequenced in any replicate, which points to weak or no binding. Parent in this assay: reference entry 1.86, copy in this library 0.88. Three control strains display no target. For library AAYL51, 21% of the pairings with them gave a signal, with a median of 4.54 and one signal in twenty below 3.26, so weak values seen in few replicates may be background.

For GFTFDDYAMH / GISWNSGSIGYADSVK / VGRMGGQFFY, the assay gave 4.49 (1 of 3 replicates). For GFTFDDYAMH / GIPWNSGSIGKADSVK / VGRKGGYFDY, the assay gave 3.86 (1 of 3 replicates). With GFTFDDYAMH / GISWNSGSIGYTDRVK / VGRCGGYFDY the result was nd (0 of 3 replicates). For GFTFDDYAMH / GMSWESGSIGYADSVK / VGRFGGYFDY, the assay gave 5.45 (1 of 3 replicates). With GFTFDDYAMH / GISWNSGSIGYADSVK / VGRCGGYFDY the result was nd (0 of 3 replicates).

For GFTFDDYAVH / GISWNSGSIGYADSVK / VGRDGHYFDY, the assay gave 5.07 (1 of 3 replicates). With GFTFDDYAMH / GITWNSGSIGQADSVK / VGRVGGYFDY the result was 3.37 (1 of 3 replicates). With GFTFDDYAMH / GISWNCGSIGYADSTK / VGRKGGYFDY the result was 3.65 (3 of 3 replicates). With GFWFDDYAMH / GISWNSGSIGYADSVK / VGRDGGYFDV the result was 2.06 (3 of 3 replicates). The variant GFTFDDYAMH / GISWNLGSIGYADSVK / VGYVGGYFDY showed 4.34 (1 of 3 replicates).

With GFTFDDYAMH / GISWNSGSIGYADNVK / VGRLFGYFDY the result was nd (0 of 3 replicates). For GFTFDDYAMH / GISWNSGSIGYADSVK / VDRVGKYFDY, the assay gave 2.36 (3 of 3 replicates). With GFTFDDYAMH / GISWNSFLIGYADSVK / VGRHGGYFDY the result was nd (0 of 3 replicates). The variant GFTFDDYAMH / GTSWNSGSISYADSVK / VGRHGGYFDY gave 6.01 (1 of 3 replicates). For GFTFDDYAMH / GRSWNSGSIGYADSVK / VGRQGGTFDY, the assay gave 5.13 (2 of 3 replicates).

The variant GFTFDDYAMH / DISWNSGSIGYADSVK / VGRFGGYQDY showed 5.41 (2 of 3 replicates). With GFTFVDYAMH / GISWNSGSIIYADSVK / VGRNGGYFDY the result was 5.07 (1 of 3 replicates). The variant GFTFDMYGMH / GISWNSGSIGYADSVK / VGRFGGYFDY showed 0.42 (3 of 3 replicates). With GFTFDDYFMH / GISWNSGSIGYAHSVK / VGRPGGYFDY the result was 5.00 (2 of 3 replicates). The variant GFTFDDYAMH / GISWNSGSIGYADSVG / VGRKGGYFDY showed nd (0 of 3 replicates).

For GFTFDDYAMH / GISWNSGSIGYADSVK / DGTFGGYFDY, the assay gave 2.92 (1 of 3 replicates). With GFTFDDYAMH / GISWNSGSIGYADSVK / VGRMCGYWDY the result was 4.48 (3 of 3 replicates). For GFTFDDYAQA / GISWNSGSIGYADSVK / VGRTGGYFDY, the assay gave 5.54 (1 of 3 replicates). With GFTFDDYAMH / GISWNSGSIGYADSVK / VGRSPVYFDY the result was 3.09 (3 of 3 replicates). With GFTFDDYAMH / GISWNSGSIGYMDSVK / VTRFGGYFDY the result was nd (0 of 3 replicates).

The variant GFYFDDYAMH / GISWNSGSIGYADSVK / VGRAGGYFDY gave 2.69 (1 of 3 replicates). With GFTFDDYAMH / GISWNSGSIGYADSIK / VGRVGGYFYY the result was 4.98 (2 of 3 replicates). The variant GFTFDDQAMH / GIVWNSGSIGYADSVK / VGRRGGYFDY gave nd (0 of 3 replicates). The variant GFTFDAYAMH / GIMWNSGSIGYADSVK / VGRDGGYFDY gave 5.63 (1 of 3 replicates). The variant GFTFDDYDMH / GISWNSGSIGYVDSVK / VGRYGGYFDY showed 3.14 (2 of 3 replicates).

With GFSFDDYAMH / GISWNWGSIGYADSVK / VGRIGGYFDY the result was 6.00 (1 of 3 replicates). The variant GFTFDDYAMH / GISWNWMSIGYADSVK / VGRVGGYFDY showed nd (0 of 3 replicates). The variant GFTMDDYAMH / GISWNSGSIGYADSVK / VGRIDGYFDY showed 5.14 (2 of 3 replicates). With GFTFDDYAMH / GISWNSGGIGYIDSVK / VGRTGGYFDY the result was 4.80 (1 of 3 replicates). The variant GFTFDDYAMH / GIKWNSGKIGYADSVK / VGRYGGYFDY gave 4.61 (1 of 3 replicates).

For GFTFDDYAMH / GISHNSGSIGNADSVK / VGRAGGYFDY, the assay gave nd (0 of 3 replicates). The variant GFTFDDYAMH / TISWNSGSIGYADSVK / VGRMGMYFDY showed nd (0 of 3 replicates). The variant GFTFDDYAMH / EISWNSGSIGYADSVK / VGRDGGYFYY showed nd (0 of 3 replicates). With GFTFDKYAMH / GISWNSGSIGYADSVK / VGRNGNYFDY the result was nd (0 of 3 replicates). With GFTFDDYAMH / GISWNNGSIGYADSVK / VGREGGYFSY the result was 4.69 (3 of 3 replicates).

The variant GFTFDDYAMH / GISWNSGSIGYADSVA / VGRSGGMFDY gave 4.54 (3 of 3 replicates). With GFTFDDYAPH / GISWNSGSIGYADSVK / VGRYGGYWDY the result was nd (0 of 3 replicates). With AFTFDDYAMH / KISWNSGSIGYADSVK / VGRCGGYFDY the result was nd (0 of 3 replicates). With GTTFDDYAMH / GISWNSGSIVYADSVK / VGRMGGYFDY the result was 4.05 (2 of 3 replicates). With GFTFDDYAMN / GISWTSGSIGYADSVK / VGREGGYFDY the result was nd (0 of 3 replicates).

With GFTFDDGAMH / GISWNSGSIGYADSVK / VGRCGGYFDY the result was nd (0 of 3 replicates). The variant GFTFDDYAMH / GISWNSGSIGYADSVK / VGRSGGPFDY showed 0.97 (3 of 3 replicates). For GFTFDDYAMH / GISWNSGSIGYADSVK / VGRFGWPFDY, the assay gave 5.70 (3 of 3 replicates). For GFTFDDYAMH / GISWNSGSIGYKDSVH / VGRHGGYFDY, the assay gave nd (0 of 3 replicates).

The opening 6 entries, copied out:

Variant GFTFDDYAMH / GISWNSGSIGYADSVK / VGRMGGQFFY gave 4.49 (1 of 3 replicates).
Variant GFTFDDYAMH / GIPWNSGSIGKADSVK / VGRKGGYFDY gave 3.86 (1 of 3 replicates).
Variant GFTFDDYAMH / GISWNSGSIGYTDRVK / VGRCGGYFDY gave nd (0 of 3 replicates).
Variant GFTFDDYAMH / GMSWESGSIGYADSVK / VGRFGGYFDY gave 5.45 (1 of 3 replicates).
Variant GFTFDDYAMH / GISWNSGSIGYADSVK / VGRCGGYFDY gave nd (0 of 3 replicates).
Variant GFTFDDYAVH / GISWNSGSIGYADSVK / VGRDGHYFDY gave 5.07 (1 of 3 replicates).

Source: Engelhart et al. 2022 (doi:10.1038/s41597-022-01779-4), MIT Lincoln Laboratory and A-Alpha Bio; data file from the FLAb repository.